## Binding of CDR-mutated scFvs to a peptide of the spike HR2 region

Reference: Engelhart et al. 2022, doi:10.1038/s41597-022-01779-4. File: FLAb, binding data.

Target peptide (SARS-CoV-2 spike, HR2 region): PDVDLGDISGINAS

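The starting antibody came from a phage panning campaign against this peptide. In library AAYL52, one, two or three CDR residues were substituted; doubles and triples were drawn at random. Affinity was read by AlphaSeq, a pooled yeast mating assay with surface-displayed partners. The frequency of each diploid, read from paired DNA barcodes, reflects how well the two displayed proteins bind. A regression on co-assayed BCL2-family reference pairs converts the normalised counts of each replicate to an apparent Kd. There are three technical replicates.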

Parent: Ab-95, a human scFv built as VH, the linker GGGGSGGGGSGGGGS, VL. Only the CDRs of the light chain vary.
VH: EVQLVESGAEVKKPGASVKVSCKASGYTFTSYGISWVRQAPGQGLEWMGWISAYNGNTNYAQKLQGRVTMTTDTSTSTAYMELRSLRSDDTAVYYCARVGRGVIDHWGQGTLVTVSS
VL: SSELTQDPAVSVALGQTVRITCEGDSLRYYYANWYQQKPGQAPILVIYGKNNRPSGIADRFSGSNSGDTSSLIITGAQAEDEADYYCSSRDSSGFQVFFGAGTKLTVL

Positions count from residue 1 of the parent VL; N51A puts A in place of N.
This list gathers variants with a substitution at N51 (VL, numbered from residue 1).
Each Kd is an estimate from the mating assay, the geometric mean of the replicates in which the pair was seen; lower is stronger.
A pair that was not seen in any replicate is written "not detected"; this usually means weak binding, but a binder can also be missed.
Empty control strains, which show no peptide, gave a signal in 28% of pairings with library AAYL52; the median was 8.2 µM and 95% of these signals were weaker than 800 nM. No background was subtracted. Also given: how often the same scFv was detected with the empty control strains.
For reference, the parent read 200 nM as the reference entry and 180 nM as a member of this library.

changes	Kd	replicates with signal	control signals
N51A+R53H+P54N	11 µM	1/3	2/9
A32M+N51R	not detected	0/3	1/9
S26G+N51G+S55A	110 nM	3/3	3/9
Y29T+N51P+R90Y	130 µM	1/3	2/9
A32N+N51M+N52Y	2.3 µM	1/3	2/9
G49V+N51C+P54Y	29 µM	1/3	2/9
A32Y+N51D+S92V	230 nM	3/3	1/9
E23R+N51V+S92K	1.6 µM	3/3	2/9
E23M+N51E+R90H	880 nM	3/3	3/9
Y30Q+N51E+R90A	not detected	0/3	2/9
G24R+N51W+F98L	not detected	0/3	4/9
S26P+N51G+P54I	3.8 µM	3/3	3/9
Y29W+N51E	790 nM	3/3	3/9
N51W+R53E+G94N	51 µM	2/3	1/9
N51Y+F95V+Q96W	2.1 µM	1/3	3/9
N51I+P54C+G94I	5.4 µM	1/3	2/9
N51K+D91I	not detected	0/3	0/9
N51F+S55F	3.6 µM	2/3	2/9
D25H+N51E+R53I	not detected	0/3	0/9
L27V+N51V+P54K	4.1 µM	3/3	2/9
N51E+S55M+S89R	5.6 µM	1/3	1/9
Y29E+N51F+G94T	25 µM	2/3	2/9
N33R+N51W+S55A	5.0 µM	1/3	3/9
S26R+N51W+F98T	not detected	0/3	0/9
G49N+N51R+S92M	6.7 µM	1/3	3/9
R28F+Y29C+N51W	1.2 µM	1/3	2/9
N51I+S88E+S93E	7.5 µM	3/3	2/9
N33E+N51D+N52V	not detected	0/3	5/9
R28T+N51D+F95A	400 nM	3/3	0/9
N51G+S88D+D91A	79 nM	3/3	2/9
Y30W+N51V+Q96Y	16 µM	2/3	4/9
Y31S+N51T+S92N	250 nM	3/3	1/9
N51S+N52C+R90N	14 µM	2/3	4/9
E23M+Y31D+N51T	18 nM	3/3	5/9
Y30S+N51T+S89R	1.6 µM	3/3	1/9
N51G+S93W+V97I	14 µM	1/3	4/9
Y29W+N51R	13 µM	2/3	3/9
G24D+N51W+G94A	190 µM	1/3	5/9
L27W+N51M	72 µM	1/3	3/9
L27T+A32H+N51F	not detected	0/3	0/9
A32M+N51A+V97S	7.5 µM	2/3	2/9
N51G+R90C+S93C	430 nM	3/3	3/9

6 of these entries, quoted again:

{"changes": "Y30S+N51T+S89R", "Kd": "1.6 µM", "replicates with signal": "3/3", "control signals": "1/9"}
{"changes": "R28F+Y29C+N51W", "Kd": "1.2 µM", "replicates with signal": "1/3", "control signals": "2/9"}
{"changes": "L27V+N51V+P54K", "Kd": "4.1 µM", "replicates with signal": "3/3", "control signals": "2/9"}
{"changes": "N51I+P54C+G94I", "Kd": "5.4 µM", "replicates with signal": "1/3", "control signals": "2/9"}
{"changes": "N33E+N51D+N52V", "Kd": "not detected", "replicates with signal": "0/3", "control signals": "5/9"}
{"changes": "N51W+R53E+G94N", "Kd": "51 µM", "replicates with signal": "2/3", "control signals": "1/9"}